Results as given in article PMC3150407, “Differential Inhibitor Sensitivity between Human Kinases VRK1 and VRK2” (PLoS ONE, 2011).

Amino acid sequences for entries named in this document (tags omitted). A change or cut given only in a name is not applied to a line headed by its entry.
UniProt Q86Y07: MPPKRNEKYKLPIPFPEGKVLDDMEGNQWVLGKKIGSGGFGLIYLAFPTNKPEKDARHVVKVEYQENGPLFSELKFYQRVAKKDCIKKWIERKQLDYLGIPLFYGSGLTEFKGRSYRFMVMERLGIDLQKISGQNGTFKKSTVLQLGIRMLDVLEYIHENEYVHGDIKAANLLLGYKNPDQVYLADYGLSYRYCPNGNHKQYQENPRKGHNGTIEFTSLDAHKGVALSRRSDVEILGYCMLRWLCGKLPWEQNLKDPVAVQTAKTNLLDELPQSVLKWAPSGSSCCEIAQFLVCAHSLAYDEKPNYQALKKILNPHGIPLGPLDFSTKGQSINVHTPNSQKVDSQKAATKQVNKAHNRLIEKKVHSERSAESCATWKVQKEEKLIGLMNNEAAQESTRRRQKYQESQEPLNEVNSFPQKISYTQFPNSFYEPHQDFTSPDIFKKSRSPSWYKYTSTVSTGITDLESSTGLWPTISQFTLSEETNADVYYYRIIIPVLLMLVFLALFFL

How the values were obtained:
GST-VRK2A [1] = molecular target: T1, GST-VRK2A (Homo sapiens, UniProt Q86Y07); experiment: In vitro kinase assay, GST-VRK2A autophosphorylation; conditions: read-out: IC50 (µM) GST-VRK2A Auto-phosphorylation
GST-VRK1 [2] = molecular target: T2, GST-VRK1 (Homo sapiens, UniProt Q99986); experiment: In vitro kinase assay, GST-VRK1 phosphorylation of histone H3; type: biochemical
T2 construct: made in house
T2 sequence (Q99986 1-396): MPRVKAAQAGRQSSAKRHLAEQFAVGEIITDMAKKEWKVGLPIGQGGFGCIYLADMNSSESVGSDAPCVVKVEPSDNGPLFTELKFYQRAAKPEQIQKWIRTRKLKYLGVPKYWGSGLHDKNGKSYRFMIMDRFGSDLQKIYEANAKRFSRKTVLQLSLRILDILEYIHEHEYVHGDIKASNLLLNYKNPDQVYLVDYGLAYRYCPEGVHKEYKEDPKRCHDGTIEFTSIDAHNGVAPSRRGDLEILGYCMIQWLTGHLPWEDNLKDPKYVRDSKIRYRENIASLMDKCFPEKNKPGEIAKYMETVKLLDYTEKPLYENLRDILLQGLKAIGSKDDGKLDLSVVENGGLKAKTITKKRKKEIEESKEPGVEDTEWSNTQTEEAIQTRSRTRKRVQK

GST-VRK1 [3] = molecular target: T2, GST-VRK1; experiment: In vitro kinase assay, GST-VRK1 autophosphorylation; type: biochemical
GST-VRK2A [4] = molecular target: T1, GST-VRK2A; experiment: In vitro kinase assay, GST-VRK2A phosphorylation of histone H3; type: biochemical; set-up: a full-length protein of 508 aminoacids (known as VRK2 and VRK2A); made in house; host or cells: E. coli BL21

Indirubin-3’-monoxime
IC50 (GST-VRK2A [1]): 50.7 ± 1.23 µM
IC50 (µM) GST-VRK1 H3 phosphorylation (GST-VRK1 [2]): No inhibition
IC50 (µM) GST-VRK1 Auto- phosphorylation (GST-VRK1 [3]): No inhibition
IC50 (GST-VRK2A [4]): 57.2 ± 1.17 µM
